Assay results reported in PubChem BioAssay AID588391 (Broad Institute, 2011).
The entries are a selection whose mix differs from that of the whole data set. Active and inactive are the calls of the source.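 The calls were made as follows: active = mean inhibition across replicates of 30% or more, whatever share of single replicates reach that level; inconclusive = mean inhibition below 30% while every single replicate reaches 30%; inactive = the rest.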

Sequences of proteins named here, by UniProt entry; tags and fusion partners are left off.
UniProt P07237, whole entry: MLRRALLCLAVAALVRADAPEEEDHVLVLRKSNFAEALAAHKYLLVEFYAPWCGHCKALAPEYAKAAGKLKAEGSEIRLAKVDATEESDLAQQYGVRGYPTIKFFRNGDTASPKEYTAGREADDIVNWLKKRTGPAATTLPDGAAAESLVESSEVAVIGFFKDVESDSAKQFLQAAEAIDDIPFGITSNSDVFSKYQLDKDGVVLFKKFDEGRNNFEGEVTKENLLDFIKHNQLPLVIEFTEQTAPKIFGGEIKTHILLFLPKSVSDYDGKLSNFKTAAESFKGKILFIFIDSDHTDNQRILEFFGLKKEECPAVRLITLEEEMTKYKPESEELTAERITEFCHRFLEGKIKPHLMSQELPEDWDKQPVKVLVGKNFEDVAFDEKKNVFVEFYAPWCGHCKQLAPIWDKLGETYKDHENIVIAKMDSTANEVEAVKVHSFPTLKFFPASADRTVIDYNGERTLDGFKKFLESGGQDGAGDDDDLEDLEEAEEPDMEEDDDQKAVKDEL

molecular target: Protein disulfide-isomerase (Homo sapiens) (UniProt P07237); experiment: blockers of PDI-driven insulin aggregation – biochemical, turbidity, single point, plate reader, primary screen (AID 588391); conditions: A650, 90 min, at 10 µM, hits give high values;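 also: absorbance from insulin aggregation driven by PDI reduction with DTT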

Row | Structure (SMILES) | inhibition
1 | N#CC1(Nc2ccccc2)CCN(Cc2ccccc2)CC1 | inactive: 0.0395%
2 | O=C(OC1CN2CCC1CC2)C1c2ccccc2Oc2ccccc21 (stereo unspecified) | inactive: 3.1%
3 | COc1ccc(Cl)cc1C(=O)NCC1(N2CCOCC2)CCCCC1 | inactive: 7.55%
4 | CCOC(=O)N1CCC(Nc2ccc(OC)cc2)CC1 | inactive: 6.53%
5 | O=C(NCC1(N2CCCCC2)CCCCC1)c1ccc(Cl)nc1 | inactive: 8.5%
6 | Cc1cc(C)cc(N(C(=O)c2ccccc2)C2CCN(C(=O)OC(C)(C)C)CC2)c1 | inactive: -1.23%
7 | O=C(NCC1(N2CCOCC2)CCCCC1)c1cc2ccccc2o1 | inactive: -1.57%
8 | CCCCOc1ccc(C(=O)NCC2(N3CCOCC3)CCCCC2)cc1 | inactive: -0.809%
9 | O=P1(N(CCCl)CCCl)SCCCS1 | inactive: 6.61%
10 | O=C(NCC1(N2CCCCC2)CCCCC1)c1ccc(F)cc1 | inactive: 2.2%
11 | CCOC(=O)N1CCC(Nc2ccc(F)cc2)CC1 | inactive: 2.12%
12 | COc1ccc(NC2CCN(CCc3ccccc3)CC2)c(OC)c1 | inactive: -2.93%
13 | CCOc1ccc(C)cc1CN(CCCl)CCCl | inactive: 1.48%
14 | CCOC(=O)N1CCC(Nc2cccc(C)c2)CC1 | inactive: 1.03%
15 | COc1cc(C(=O)NCC2(N(C)C)CCCCC2)ccc1OC(F)F | inactive: -1.24%
16 | Cc1ccc(C(=O)NCC2(N3CCCCC3)CCCCC2)o1 | inactive: 2.18%
17 | Fc1ccccc1NC1CCN(Cc2ccccc2)CC1 | inactive: 0.488%
18 | Cc1ccc(NC2(C#N)CCN(Cc3ccccc3)CC2)cc1 | inactive: -3.91%
19 | CC(=O)N(c1ccccc1)C1CCNCC1 | inactive: 12.7%
20 | COc1cc(OC)cc(C(=O)NCC2(N3CCCCC3)CCCCC2)c1 | inactive: 2.96%
21 | O=C(NCC1(N2CCCCC2)CCCCC1)c1ccco1 | inactive: -10.2%
22 | CN(C)c1ccc(C(=O)NCC2(N3CCCCC3)CCCCC2)cc1 | inactive: 6.64%
23 | Cn1c(=O)[nH]cc(N(CCCl)CCCl)c1=O | inactive: 2.13%

Row | Structure (SMILES) | inhibition
24 | Cc1ccccc1NC1(C#N)CCN(Cc2ccccc2)CC1 | inactive: 1.62%
25 | CCN1CCC(Nc2cccc(F)c2)CC1 | inactive: -3.74%
26 | CC(C)(C)OC(=O)N1CCC(Nc2ccccc2)CC1 | inactive: 2.61%
27 | O=C(O)C1(Nc2ccccc2)CCN(Cc2ccccc2)CC1 | inactive: -7.56%
28 | CCCOc1ccc(C(=O)NCC2(N(C)C)CCCCC2)cc1 | inactive: 7.2%
29 | CCOc1ncccc1C(=O)NCC1(N2CCOCC2)CCCCC1 | inactive: -7.93%
30 | CN1CCC(Nc2ccc(F)c(Cl)c2)CC1 | inactive: 7.93%
31 | CN1CCC(Nc2ccc(Cl)cc2)CC1 | inactive: 2.02%
32 | COc1cccc(C(=O)N(c2cc(C)cc(C)c2)C2CCN(C(=O)OC(C)(C)C)CC2)c1 | inactive: -1.81%
33 | COc1cc(OC)cc(C(=O)NCC2(N3CCOCC3)CCCCC2)c1 | inactive: 0.275%
34 | CCC(CO)(C(=O)OC1CN2CCC1CC2)c1ccccc1 (stereo unspecified) | inactive: -4.55%
35 | COc1ccc(C(=O)NCC2(N3CCOCC3)CCCCC2)cc1OC | inactive: 0.111%
36 | COc1cc(C(=O)NCC2(N3CCOCC3)CCCCC2)cc(OC)c1C | inactive: -4.05%
37 | O=C(NCC1(N2CCOCC2)CCCCC1)c1cc(Br)ccc1Cl | inactive: 4.75%
38 | O=C(OC1CN2CCC1CC2)C1c2ccccc2C=Cc2ccccc21 (stereo unspecified) | inactive: 4.57%
39 | CCOC(=O)N1CCC(Nc2ccc(C)cc2)CC1 | inactive: 12.2%
40 | N/C(=N\O)c1c(N)no[n+]1[O-] | inactive: -3.69%
41 | N#Cc1ccc(C(=O)NCC2(N3CCCCC3)CCCCC2)cc1 | inactive: -0.155%
42 | CC(C)(C)OC(=O)N1CCC(N(C(=O)c2ccccc2)c2ccc(Cl)cc2)CC1 | inactive: -4.09%
43 | CN(C)C1(CNC(=O)c2cccc(C#N)c2)CCCCC1 | inactive: -21.3%
44 | c1ccc(CN2CCC(Nc3ccccc3)CC2)cc1 | inactive: 10.1%
45 | CCCN1CCC(Nc2cc(OC)cc(OC)c2)CC1 | inactive: -0.677%
46 | Cc1cc(N(CCCl)CCCl)ccc1C=O | inactive: 3.17%
